Source: patent publication US10190138B2, “Methods using short chain peracids to replace antibiotics for controlling fermentation process infection” (Ecolab USA Inc., priority 2012, dated 2019)

Conditions: pH 4
Description: The issue of low solubility when using long chain peracids has been addressed by increasing the pH to above 7. […] Further, bleaching efficacy decreases proportionally with every pH unit increase over about 7.

Substance: persulfonated oleic acid
- solubility: greater than 50%
